Results published in BindingDB's records for 11831902.

Biological target: Carboxylic ester hydrolase (Equus caballus, UniProt Q9N1N9)
Experiment: Inhibitory activity against Butyrylcholinesterase (BChE)

`CN(C)C(=O)Oc1cccnc1CO` showed a pKi of 2.86.

pKi: −log10 of the molar value.
